Source: patent US10646553B2, “Use of recombinant human calcineurin B subunit” (HAIKOU QILI PHARMACEUTICAL CO., LTD., priority 2015, dated 2020)

Columns and labels:
[1] = Survival of tumour-bearing animals during the experiment; format: in vivo, BALB/c nude mice; conditions: B, 164,000 IU/kg once daily 15 d
From the text: In one embodiment of the present invention, according to the “Technical Guidelines for Non-Clinical Studies of Cytotoxic Antitumor Drugs” and “Guidelines for Pharmacodynamics of Antitumor Drugs”, IVIS Kinetics (a small animal live imaging system) was used to dynamically analyze the therapeutic effect of rhCNB for injection on the BALB/c nude mice bearing the human gastric cancer cell MGC-803 carcinoma in situ. Firstly, a BALB/c nude mouse model bearing subcutaneous transplantation tumor of human gastric cancer cell MGC-803 was established, and then a BALB/c nude mouse model bearing transplantation tumor in situ of human gastric cancer cell MGC-803 was established. 90 nude mice modeled successfully were taken and evenly divided into 9 administration groups according to the values of bioluminescence, including: high-dose group of rhCNB for injection (administration dose, 40 mg/kg; administration concentration, 2 mg/mL), medium-dose group of rhCNB for injection (administration dose, 20 mg/kg; administration concentration, 1 mg/mL), low-dose group of rhCNB for injection (administration dose, 10 mg/kg; administration concentration, 0.5 mg/mL), progressively increasing-dose group of rhCNB for injection (with the first administration dose of 10 mg/kg, followed by increasing dose by one fold every 3 days, which are 10 mg/kg, 20 mg/kg, 40 mg/kg, 80 mg/kg, and 160 mg/kg successively), positive control administration group of recombinant human interleukin-2 for injection (administration dose, 164,000 IU/kg; administration concentration, 8200 IU/mL), positive control high-dose administration group of cisplatin for injection (5 mg/kg; administration concentration, 0.25 mg/mL), positive control low-dose administration group of cisplatin for injection (1 mg/kg; administration concentration, 0.05 mg/mL), positive control administration group of hydroxycamptothecin for injection (2 mg/kg; administration concentration, 0.1 mg/mL) and vehicle control group. Each experimental group is administered once daily for 15 consecutive days, except that the positive control high-dose administration group of cisplatin for injection is administered for 5 days. […] Animals were examined once using Caliper IVIS Kinetics (small animal live imaging system) before the first administration (on the administration day), every other 3 days after the first administration and on the 7th day after the last administration, respectively, and body weight was measured before each examination. At the end of the last examination, animals were sacrificed and roughly necropsied, and organs inoculated with tumor (including tumor tissues) were removed for pathological examination and immunohistochemical assay of apoptosis.
90 inoculated nude mice were taken and randomly divided into 9 groups based on the detected bioluminescence data, that is, high-dose group of rhCNB for injection, medium-dose group of rhCNB for injection, low-dose group of rhCNB for injection, progressively increasing-dose group of rhCNB for injection, positive control administration group of recombinant human interleukin-2 for injection, positive control high-dose administration group of cisplatin for injection, positive control low-dose administration group of cisplatin for injection, positive control administration group of hydroxycamptothecin for injection and vehicle control group, 10 mice per group.
The high-, medium-, low-dose groups and progressively increasing-dose group of the test sample were administered once daily for 15 consecutive days;

[2] = test system: transplantation tumor of human gastric cancer cell MGC-803 carcinoma in situ; assay: Bioluminescence detection (IVIS small animal live imaging) and necropsy of orthotopic MGC-803 tumour in nude mice; format: in vivo, BALB/c nude mice; conditions: B, 164,000 IU/kg once daily 15 d
From the text: In one embodiment of the present invention, according to the “Technical Guidelines for Non-Clinical Studies of Cytotoxic Antitumor Drugs” and “Guidelines for Pharmacodynamics of Antitumor Drugs”, IVIS Kinetics (a small animal live imaging system) was used to dynamically analyze the therapeutic effect of rhCNB for injection on the BALB/c nude mice bearing the human gastric cancer cell MGC-803 carcinoma in situ. Firstly, a BALB/c nude mouse model bearing subcutaneous transplantation tumor of human gastric cancer cell MGC-803 was established, and then a BALB/c nude mouse model bearing transplantation tumor in situ of human gastric cancer cell MGC-803 was established. […] Each experimental group is administered once daily for 15 consecutive days, except that the positive control high-dose administration group of cisplatin for injection is administered for 5 days. […] Animals were examined once using Caliper IVIS Kinetics (small animal live imaging system) before the first administration (on the administration day), every other 3 days after the first administration and on the 7th day after the last administration, respectively, and body weight was measured before each examination. At the end of the last examination, animals were sacrificed and roughly necropsied, and organs inoculated with tumor (including tumor tissues) were removed for pathological examination and immunohistochemical assay of apoptosis.
Human gastric cancer cell MGC-803 was routinely cultured in vitro, digested, centrifuged, and then prepared into a cell suspension with a concentration of approximately 1×10^7 cells/mL. The cells were inoculated subcutaneously into the right armpit of mice at an amount of 0.2 mL/mouse.
Well-grown subcutaneously transplanted tumors were removed and cut into tumor tissue blocks with a size of approximately 2×2×1 mm for use. Animals to be inoculated were feed 12 hours before surgical operation and subjected to gas anesthesia with isoflurane. The anaesthetized animals were placed in supine position. The skin 2˜5 mm below the xiphoid process was cut horizontally layer-by-layer on the left side to give an opening of about 1 cm. Stomach was pull out gently using a pincette and exposed. The tumor tissue block was placed above the side near the pylorus of greater curvature of stomach of the nude mice with surgical suture #1 by “purse-string suture”, so that the tumor tissue block was wrapped therein. The skin was sutured layer by layer and disinfected by Entoiodine, and then the animals were returned back to the cage for normal feeding. 7 days after surgery, the animals were examined using the small animal live imaging system, grouped, and administrated.

For “interleukin-2 for injection: positive control drug, recombinant human interleukin-2 for injection”, the “number of surviving animals” value ([1]; d0 before administration) was “(10)”, the “number of surviving animals” value ([1]; d3) was “(10)” and the “number of surviving animals” value ([1]; d6) was “(8)”. For the same substance, the “number of surviving animals” value ([1]; d9) was “(8)”, the “number of surviving animals” value ([1]; d12) was “(7)” and the “number of surviving animals” value ([1]; d15) was “(7)”. The “number of surviving animals” value ([1]; d21 (7th day after last administration)) was “(7)”, the “Number of animals in which tumor is not detectable and not observed” value ([2]; d0) was 0 and the “Number of animals in which tumor is not detectable and not observed” value ([2]; d3) was 0. The “Number of animals in which tumor is not detectable and not observed” value ([2]; d6) was 0, the “Number of animals in which tumor is not detectable and not observed” value ([2]; d9) was 0 and the “Number of animals in which tumor is not detectable and not observed” value ([2]; d12) was 0. The “Number of animals in which tumor is not detectable and not observed” value ([2]; d15) was 0 and the “Number of animals in which tumor is not detectable and not observed” value ([2]; recovery period d7) was 0.
